Measured values taken from patent US20260382584A1, “TEAD- AND HER2-INHIBITOR COMBINATIONS FOR TREATING CANCER” (published 2026).

Experiments:
SNU-216 cells = assay: CellTiterGlo in vitro viability, gastric cancer cell line SNU-216 (6-day); settings: 6-day treatment, alone
NCI-H2170 cells = assay: CellTiterGlo in vitro viability, non-small cell lung cancer cell line NCI-H2170 (6-day); settings: 6-day treatment, alone
EFM192A cells = assay: CellTiterGlo in vitro viability, breast (HR+/HER2+) cancer cell line EFM192A; settings: 6-day treatment, alone
[1] = system: NCI-N87 HER2-amplified gastric cancer xenograft tumors; assay: NCI-N87 HER2-amplified gastric cancer xenograft model in mice

Cc1ccc(C2CC(Br)=NO2)cc1Oc1ccc(Cl)cc1 (centres unmarked)
growth inhibition, single agent (SNU-216 cells): not by Compound D (at least outside very high concentrations of Compound D) | growth inhibition, single agent (NCI-H2170 cells): not by Compound D (at least outside very high concentrations of Compound D)

C[C@]12CC[C@@H]3c4ccc(O)cc4C[C@@H](CCCCCCCCC[S+]([O-])CCCC(F)(F)C(F)(F)F)[C@H]3[C@@H]1CC[C@@H]2O (some centres unmarked)
growth inhibition, single agent (EFM192A cells): no inhibition was achieved

CNC[C@]1(c2ccccc2)Oc2cc(F)c(Cl)c(-c3c(C(N)=O)ccc(OC)c3F)c2[C@@H]1C
growth inhibition, single agent (SNU-216 cells): inhibited | growth inhibition, single agent (NCI-H2170 cells): inhibited

C[C@H](O)COc1ccc(C(N)=O)c(-c2c(Cl)c(F)cc3c2[C@H](C)[C@@](CN[C@H]2CC[C@](C)(O)CC2)(c2ccccc2)O3)c1F
tumor response ([1]; Compound E p.o., hIgG1 and Trastuzumab i.p.): tumor stasis | mean tumor volume ([1]; day 26): 279 mm^3

C=CC(=O)Nc1ccc(C)c(Oc2ccc(Cl)cc2)c1
growth inhibition, single agent (SNU-216 cells): not by Compound C alone (at least outside very high concentrations of Compound C) | growth inhibition, single agent (NCI-H2170 cells): not by Compound C alone (at least outside very high concentrations of Compound C)

CC(NC(=O)c1ccc2c(-c3ccc(C(F)(F)F)cc3)cccc2c1)c1ccccn1 (centres unmarked)
growth inhibition, single agent (SNU-216 cells): not by Compound B alone | growth inhibition, single agent (NCI-H2170 cells): not by Compound B alone
